What was measured:
GST-L3cyto-Y667F = biological target: T1, GST-L3cyto-Y667F
T1 chain: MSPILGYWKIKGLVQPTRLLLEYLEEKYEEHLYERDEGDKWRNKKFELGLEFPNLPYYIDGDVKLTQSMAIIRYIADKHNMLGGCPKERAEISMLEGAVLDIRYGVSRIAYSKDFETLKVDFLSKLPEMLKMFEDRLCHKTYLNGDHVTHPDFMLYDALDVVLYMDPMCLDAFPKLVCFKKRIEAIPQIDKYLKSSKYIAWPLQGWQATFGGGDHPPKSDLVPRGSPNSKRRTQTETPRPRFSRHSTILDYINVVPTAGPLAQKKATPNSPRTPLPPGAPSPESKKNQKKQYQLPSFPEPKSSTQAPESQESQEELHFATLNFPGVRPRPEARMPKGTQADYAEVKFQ

L3cyto-Y691F = biological target: T2, L3cyto-Y691F
T2 chain: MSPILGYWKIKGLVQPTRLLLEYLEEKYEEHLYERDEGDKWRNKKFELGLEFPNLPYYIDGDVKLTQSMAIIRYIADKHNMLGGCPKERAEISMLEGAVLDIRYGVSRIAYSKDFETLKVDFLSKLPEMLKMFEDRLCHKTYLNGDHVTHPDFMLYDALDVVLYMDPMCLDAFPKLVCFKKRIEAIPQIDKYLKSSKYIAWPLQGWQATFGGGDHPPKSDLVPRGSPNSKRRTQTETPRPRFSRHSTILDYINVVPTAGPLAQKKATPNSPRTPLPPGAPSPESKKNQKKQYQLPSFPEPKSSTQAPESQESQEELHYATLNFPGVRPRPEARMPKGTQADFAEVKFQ

B1: lck kinase (protein)
chain: GCGCSSHPEDDWMENIDVCENCHYPIVPLDGKGTLLIRNGSEVRDPLVTYEGSNPPASPLQDNLVIALHSYEPSHDGDLGFEKGEQLRILEQSGEWWKAQSLTTGQEGFIPFNFVAKANSLEPEPWFFKNLSRKDAERQLLAPGNTHGSFLIRESESTAGSFSLSVRDFDQNQGEVVKHYKIRNLDNGGFYISPRITFPGLHELVRHYTNASDGLCTRLSRPCQTQKPQKPWWEDEWEVPRETLKLVERLGAGQFGEVWMGYYNGHTKVAVKSLKQGSMSPDAFLAEANLMKQLQHQRLVRLYAVVTQEPIYIITEYMENGSLVDFLKTPSGIKLTINKLLDMAAQIAEGMAFIEERNYIHRDLRAANILVSDTLSCKIADFGLARLIEDNEYTAREGAKFPIKWTAPEAINYGTFTIKSDVWSFGILLTEIVTHGRIPYPGMTNPEVIQNLERGYRMVRPDNCPEELYQLMRLCWKERPEDRPTFDYLRSVLEDFFTATEGQYQPQP
Decrease in Wild type Phosphorylation (GST-L3cyto-Y667F): 50%
Decrease in Wild type Phosphorylation (L3cyto-Y691F): 30%

— patent US20030036631
